These results are taken from patent EP2505659A1, “Methods for the identification of dioxygenase interacting molecules and for the purification of dioxygenase proteins” (CELLZOME AG, priority 2011, dated 2012).

By UniProt entry, the sequences of proteins in these tests, tags left out. Where a name states a change or a piece, a line headed by the entry shows the natural chain unless it says otherwise. Residues count along the entry.
UniProt P13674, 18-534: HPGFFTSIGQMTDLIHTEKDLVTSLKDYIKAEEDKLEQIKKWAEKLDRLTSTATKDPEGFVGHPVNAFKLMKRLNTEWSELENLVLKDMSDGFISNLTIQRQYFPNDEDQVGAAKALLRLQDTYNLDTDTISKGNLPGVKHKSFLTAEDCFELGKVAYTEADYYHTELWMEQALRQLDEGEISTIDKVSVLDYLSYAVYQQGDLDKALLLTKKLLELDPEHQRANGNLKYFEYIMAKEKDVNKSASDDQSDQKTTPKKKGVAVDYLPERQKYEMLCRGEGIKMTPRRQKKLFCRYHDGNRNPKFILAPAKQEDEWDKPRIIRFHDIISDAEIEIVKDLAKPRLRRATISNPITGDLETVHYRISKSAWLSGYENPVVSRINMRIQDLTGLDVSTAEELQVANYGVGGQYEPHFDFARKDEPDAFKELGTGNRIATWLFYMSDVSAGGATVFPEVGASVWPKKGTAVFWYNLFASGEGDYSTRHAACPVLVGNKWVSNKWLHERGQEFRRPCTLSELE
UniProt Q6NS38: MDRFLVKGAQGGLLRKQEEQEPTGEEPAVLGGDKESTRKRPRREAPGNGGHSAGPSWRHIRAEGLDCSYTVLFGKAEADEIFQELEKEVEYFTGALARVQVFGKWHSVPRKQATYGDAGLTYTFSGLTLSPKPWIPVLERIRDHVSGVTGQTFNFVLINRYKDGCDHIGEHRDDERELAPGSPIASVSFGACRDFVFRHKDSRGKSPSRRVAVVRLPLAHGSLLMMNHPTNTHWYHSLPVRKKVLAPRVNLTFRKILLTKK
UniProt Q9C0B1, whole entry: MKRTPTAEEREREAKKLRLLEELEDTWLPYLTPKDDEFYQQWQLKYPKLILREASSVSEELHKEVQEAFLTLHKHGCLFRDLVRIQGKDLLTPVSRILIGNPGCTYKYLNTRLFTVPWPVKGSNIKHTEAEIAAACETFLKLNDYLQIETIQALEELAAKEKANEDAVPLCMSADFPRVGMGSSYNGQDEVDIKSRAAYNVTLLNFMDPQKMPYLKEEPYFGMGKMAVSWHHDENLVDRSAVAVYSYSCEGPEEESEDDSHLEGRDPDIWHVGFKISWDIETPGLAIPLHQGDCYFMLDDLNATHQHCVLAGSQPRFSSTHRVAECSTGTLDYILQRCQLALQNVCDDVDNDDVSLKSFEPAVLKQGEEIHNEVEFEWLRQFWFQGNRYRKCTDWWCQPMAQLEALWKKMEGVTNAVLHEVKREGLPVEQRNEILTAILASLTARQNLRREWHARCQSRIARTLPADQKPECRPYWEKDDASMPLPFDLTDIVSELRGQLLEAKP

Common to all, as to assay: biochemical
Conditions in all cases: read-out: Fold change versus DMSO control

For one assay, the target named is P4HA1 (Homo sapiens, UniProt P13674). As to the method: (§1) Cells were harvested by centrifugation, washed once with 1 x PBS buffer (Invitrogen, #14190-094) and cell pellets were frozen in liquid nitrogen and subsequently stored at -80°C.
(§2) Cells were homogenized in a Potter S homogenizer in lysis buffer: 50 mM Tris-HCl, 0.8% NP40, 5% glycerol, 150 mM NaCl, 1.5 mM MgCl2, 25 mM NaF, 1 mM sodium vanadate, 1 mM DTT, pH 7.5. […] The supernatant was transferred again to a fresh 50 ml falcon tube, the protein concentration was determined by a Bradford assay (BioRad) and samples containing 50 mg of protein per aliquot were prepared.

The next assay deals with ALKBH2 (Homo sapiens, UniProt Q6NS38). On the procedure:
as §1, §2

For another assay, the target named is T1, PLOD1 (Homo sapiens, UniProt Q02809).
T1 sequence (Q02809 19-727): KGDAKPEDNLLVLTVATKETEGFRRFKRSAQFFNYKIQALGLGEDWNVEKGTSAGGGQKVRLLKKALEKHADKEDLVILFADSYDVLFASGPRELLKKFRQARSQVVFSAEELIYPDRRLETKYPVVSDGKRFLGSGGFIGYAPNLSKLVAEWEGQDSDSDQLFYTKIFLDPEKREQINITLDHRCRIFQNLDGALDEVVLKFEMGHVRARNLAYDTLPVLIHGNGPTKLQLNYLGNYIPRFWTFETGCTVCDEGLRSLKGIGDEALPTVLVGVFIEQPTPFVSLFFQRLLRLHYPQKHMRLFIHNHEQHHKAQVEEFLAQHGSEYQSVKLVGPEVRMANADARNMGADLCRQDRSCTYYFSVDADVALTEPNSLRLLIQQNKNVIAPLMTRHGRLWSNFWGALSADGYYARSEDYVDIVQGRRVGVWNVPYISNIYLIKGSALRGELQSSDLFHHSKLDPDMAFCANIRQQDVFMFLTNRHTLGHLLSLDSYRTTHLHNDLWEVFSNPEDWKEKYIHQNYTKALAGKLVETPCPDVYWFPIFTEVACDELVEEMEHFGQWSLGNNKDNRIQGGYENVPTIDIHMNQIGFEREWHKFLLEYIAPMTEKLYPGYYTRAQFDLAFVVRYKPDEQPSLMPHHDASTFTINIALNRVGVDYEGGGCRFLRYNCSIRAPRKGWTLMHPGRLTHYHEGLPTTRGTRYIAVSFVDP
As to the method: as §1, §2

The target in the next assay is T2, PLOD3 (Homo sapiens, UniProt O60568).
T2 sequence (O60568 25-738): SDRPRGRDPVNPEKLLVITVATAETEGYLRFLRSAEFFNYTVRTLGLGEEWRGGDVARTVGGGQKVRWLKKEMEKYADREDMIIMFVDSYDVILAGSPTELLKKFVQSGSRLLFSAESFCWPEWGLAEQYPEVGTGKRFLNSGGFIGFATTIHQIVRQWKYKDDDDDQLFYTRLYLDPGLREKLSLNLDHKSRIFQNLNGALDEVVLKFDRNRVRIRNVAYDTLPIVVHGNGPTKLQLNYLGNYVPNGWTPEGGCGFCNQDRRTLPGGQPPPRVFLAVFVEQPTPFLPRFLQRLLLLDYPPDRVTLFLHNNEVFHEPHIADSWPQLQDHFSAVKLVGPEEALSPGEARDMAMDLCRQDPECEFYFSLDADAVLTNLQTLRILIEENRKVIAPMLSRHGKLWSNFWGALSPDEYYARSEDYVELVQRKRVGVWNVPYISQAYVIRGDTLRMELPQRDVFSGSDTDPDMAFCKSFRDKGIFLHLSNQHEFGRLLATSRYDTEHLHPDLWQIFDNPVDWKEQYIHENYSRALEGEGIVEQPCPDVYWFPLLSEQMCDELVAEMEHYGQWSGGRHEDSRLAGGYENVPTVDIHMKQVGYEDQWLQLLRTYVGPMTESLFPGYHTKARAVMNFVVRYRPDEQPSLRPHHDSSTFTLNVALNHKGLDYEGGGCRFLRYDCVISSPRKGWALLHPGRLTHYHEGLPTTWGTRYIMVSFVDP
As to the method:
as §1, §2

The next assay concerns the target FTO (Homo sapiens, UniProt Q9C0B1). As to the method: as §1, §2
In another assay the target is T3, LEPREL2 (Homo sapiens, UniProt Q8IVL6).
T3 sequence (Q8IVL6 21-736): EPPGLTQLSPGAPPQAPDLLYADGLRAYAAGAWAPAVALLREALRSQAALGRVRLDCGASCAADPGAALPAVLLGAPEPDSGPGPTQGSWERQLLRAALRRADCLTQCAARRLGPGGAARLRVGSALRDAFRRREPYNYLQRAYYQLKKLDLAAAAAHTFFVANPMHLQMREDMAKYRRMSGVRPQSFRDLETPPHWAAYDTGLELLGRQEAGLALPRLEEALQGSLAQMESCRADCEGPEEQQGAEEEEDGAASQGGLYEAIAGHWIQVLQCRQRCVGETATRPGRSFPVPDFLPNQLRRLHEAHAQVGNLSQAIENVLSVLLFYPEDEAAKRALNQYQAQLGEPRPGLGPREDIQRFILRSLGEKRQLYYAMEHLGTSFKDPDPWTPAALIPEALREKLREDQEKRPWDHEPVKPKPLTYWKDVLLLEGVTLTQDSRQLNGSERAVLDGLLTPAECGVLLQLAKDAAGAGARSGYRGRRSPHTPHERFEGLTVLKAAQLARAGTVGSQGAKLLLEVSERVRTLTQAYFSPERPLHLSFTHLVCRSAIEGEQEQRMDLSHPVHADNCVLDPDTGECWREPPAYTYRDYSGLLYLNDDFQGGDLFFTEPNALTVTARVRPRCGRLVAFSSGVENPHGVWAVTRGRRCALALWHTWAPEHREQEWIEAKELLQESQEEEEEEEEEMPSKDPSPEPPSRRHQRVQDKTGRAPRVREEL
As to the method:
as §1, §2

Where a name gives a salt, the structure may show the parent alone.

Take `O=C(O)CNC(=O)C1C(=O)OC2(CCNCC2)OC1=O` [compound A, 2-(2,4-dioxo-1,5-dioxa-9-azaspiro[5.5]undecane-3-carboxamido)acetic acid hydrochloride]: the remaining activity at 200 µM was determined as 14% on P4HA1; 121% at ALKBH2; 77% on PLOD1; 104% at PLOD3; 25% at FTO; 21% at LEPREL2.
